# Key:
# RA patients = conditions: CERTAIN Biorepository RA patients; cited from earlier work
# [1] = system: 4-analyte M-DP panel (CRP, SAA, CXCL10, CXCL13); assay: Pharmacodynamic 4-analyte M-DP score by MSD U-PLEX, CORRONA CERTAIN biorepository serum; format: in vivo, human; conditions: U-PLEX 4-analyte; for M-DP score GMean decrease: all treated; for M-DP score mean difference ± SD, Good vs. No: 6-month response
# From the text: Additionally, a validation set of serum samples were commercially obtained (CERTAIN Biorepository (Pappas AD, et al. BMC Musculoskelet Disord. 2014 Apr. 1; 15:113), Coronna, LLC) for RA patients treated with rituximab (n=12) or abatacept (n=38), with serum samples obtained at baseline and at 3-months and 6-months of treatment. EULAR DAS28-CRP clinical response rates were 50% and 58% for good response, 32% and 33% for moderate response, and 18% and 8% no response, for rituximab and abatacept treatment groups, respectively.
# Using custom-designed Meso Scale Discovery (MS) U-PLEX panels, concentrations of CRP and SAA in panel one and CXCL10 and CXCL13 in panel 2, along with IL-6, were measured in the Coronna CERTAIN Biorepository serum samples from rituximab (Rituxan) and abatacept (Orencia)-treated RA patients. PD M-DP scores for the 4-analyte panel were calculated based on these concentrations of CRP, SAA, CXCL10, and CXCL13.
# The 4-analyte panel of CRP, SAA, CXCL10, and CXCL13 was measured by MSD U-PLEX assays in serum samples from 38 abatacept- and 12 rituximab-treated RA patients at baseline and 3—and 6—month visits. These samples were not previously evaluated for the M-DP panel development or reduction. Decreases in M-DP scores concurred with the clinical efficacy observed for abatacept treatment, with significant PD M-DP scores at 3—and 6—months for abatacept (GMean 45% decrease, p<0.0001 for both) (Table 6). […] Significant M-DP scores were also observed for rituximab at 6-months (GMean 36% decrease, p=0.040), with a trend for scores below zero at 3-months (GMean 30% decrease, p=0.17) (Table 6).
# [2] = month 3, week 24 EULAR DAS28-CRP response
substance,measurement,setting,value
abatacept,"EULAR DAS28-CRP clinical response rate, good response",RA patients,58%
same,"EULAR DAS28-CRP clinical response rate, moderate response",RA patients,33%
same,"EULAR DAS28-CRP clinical response rate, no response",RA patients,8%
same,M-DP score GMean decrease,[1]; 3-months,45%
same,M-DP score GMean decrease,[1]; 6-months,45%
same,"M-DP score GMean decrease, good response group",[1]; [2],51%
same,"M-DP score GMean decrease, moderate response group",[1]; [2],49%
same,"M-DP score GMean decrease, no response group",[1]; [2],16%
same,"M-DP score mean ± SD, 6-month DAS28-CRP response group Good",[1]; score at month 3M,−1.04 ± 1.07 [19] + log2 (fold/baseline)
same,"M-DP score mean ± SD, 6-month DAS28-CRP response group Moderate",[1]; score at month 3M,−0.96 ± 0.97 [12] * log2 (fold/baseline)
same,"M-DP score mean ± SD, 6-month DAS28-CRP response group No",[1]; score at month 3M,−0.25 ± 0.71 [7] log2 (fold/baseline)
same,"M-DP score mean ± SD, All treated",[1]; score at month 3M,−0.87 ± 1.01 [38] + log2 (fold/baseline)
same,"M-DP score mean difference ± SD, Good vs. No",[1]; score at month 3M,−0.79 + 0.99 (0.0044) log2 (fold/baseline)
same,"M-DP score mean ± SD, 6-month DAS28-CRP response group Good",[1]; score at month 6M,−1.21 ± 0.95 [19]+ log2 (fold/baseline)
same,"M-DP score mean ± SD, 6-month DAS28-CRP response group Moderate",[1]; score at month 6M,−0.84 ± 1.10 [12] * log2 (fold/baseline)
same,"M-DP score mean ± SD, 6-month DAS28-CRP response group No",[1]; score at month 6M,0.13 ± 0.94 [7] log2 (fold/baseline)
same,"M-DP score mean ± SD, All treated",[1]; score at month 6M,−0.85 ± 1.09 [38] + log2 (fold/baseline)
same,"M-DP score mean difference ± SD, Good vs. No",[1]; score at month 6M,−1.34 ± 0.94 (0.0084) log2 (fold/baseline)

# — patent US20230243822A1, “MOLECULAR DISEASE PROFILE AND USE THEREOF FOR MONITORING AND TREATING RHEUMATAOID ARTHRITIS” (JANSSEN BIOTECH, INC., priority 2020, published 2023)
